Experimental data as given in PMC7305985.

Biological target: FLAG-tagged KAP1 ΔRB
Assay: co-IP

percent decrease in binding relative to WT KAP1: 30%
Substance: RPB1 subunit of RNA polymerase II (Pol II), endogenous (from UniProt P24928 1-1970) (natural protein)
